Assay results reported in patent publication US20030148269A1, “Centrifugally-enhanced method of determining ligand/target affinity” (priority 1999, published 2003).

Protein sequences, listed by entry. Tags and fused reporters are not part of them. Residues count along the entry.
UniProt P08254, 100-273: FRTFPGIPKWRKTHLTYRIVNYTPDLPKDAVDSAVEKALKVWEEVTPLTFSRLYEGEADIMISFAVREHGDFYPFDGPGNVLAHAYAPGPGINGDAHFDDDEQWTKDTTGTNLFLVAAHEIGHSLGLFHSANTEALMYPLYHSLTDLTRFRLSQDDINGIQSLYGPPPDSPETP

Molecular target: stromelysin catalytic domain (SCD) (Homo sapiens, UniProt P08254)
Assay: Affinity (Ki) for SCD previously determined by another method
Assay type: binding
Settings: result in words

Compound: O=C(Nc1ccccc1)c1ccccc1 [N-phenylbenzamide]
- Affinity (Ki): Non-
